This is an account of results in patent US20060165656A1, “Medicinal preparation having chemotherapeutic encapsulated therein” (priority 2002, published 2006).

Where two headings read alike, the source gives them in different places.

This assay has as its system mouse colon carcinoma cell CT26.

As to bleomycin HCl, the “degree of viable cells in percentage relative to the medium group (=100%)” value by setting is: (bleomycin 500 ng/DMEM 500 μl/well) 89.4%; (bleomycin 5 μg/DMEM 500 μl/well) 74.8%; (bleomycin 50 μg/DMEM 500 μl/well) 33.9%.
